{"sequences": {"note": "By UniProt entry, the sequences of proteins in these tests, tags left out. Residues count along the entry.", "UniProt P00748, 20-372 limits assumed": "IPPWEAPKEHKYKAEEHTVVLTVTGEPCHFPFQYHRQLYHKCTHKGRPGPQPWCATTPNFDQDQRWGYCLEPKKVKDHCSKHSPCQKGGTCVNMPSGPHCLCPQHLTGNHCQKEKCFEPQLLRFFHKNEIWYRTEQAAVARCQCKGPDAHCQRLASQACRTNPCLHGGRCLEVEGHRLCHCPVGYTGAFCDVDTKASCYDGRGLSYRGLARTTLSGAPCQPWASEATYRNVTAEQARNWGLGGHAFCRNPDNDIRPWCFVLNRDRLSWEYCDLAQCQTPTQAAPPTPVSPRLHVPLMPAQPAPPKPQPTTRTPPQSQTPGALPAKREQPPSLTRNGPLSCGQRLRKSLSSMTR", "UniProt P00748, 373-615 limits assumed": "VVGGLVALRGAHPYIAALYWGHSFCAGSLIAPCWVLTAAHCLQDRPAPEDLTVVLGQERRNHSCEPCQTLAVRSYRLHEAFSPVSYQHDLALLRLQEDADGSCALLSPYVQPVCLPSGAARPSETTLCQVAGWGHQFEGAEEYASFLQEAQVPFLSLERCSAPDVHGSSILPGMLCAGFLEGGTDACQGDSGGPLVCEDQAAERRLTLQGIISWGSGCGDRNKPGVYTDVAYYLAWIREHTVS"}, "source": "PubChem BioAssay AID684", "about": "(PCMD, 2007)", "note": "The list shows a part of the results, in another mix than the full data. Some results for these compounds are left out of this collection, so the calls shown say nothing about other tests. Activity calls are given as the source filed them. Cut-off read from the data, not from the text of the source: active = inhibition above about 20% (passing the limit was not always enough); inactive = the rest."}
{"target": "Coagulation factor XII (Homo sapiens) (UniProt P00748)", "assay": "human factor XIIa inhibitors, primary screen, biochemical, pooled compound mixtures, fluorogenic substrate (AID 684);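 note: 0% = enzyme without compound and 100% = no enzyme blank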", "details": "purified FXIIa, at 5 µM, stronger effect = higher value"}
{"smiles": "CN(C)c1cccc(C(=O)NCC2(N(C)C)CCCCC2)c1", "inhibition": "inactive: 0.68%"}
{"smiles": "O=C(OC1CN2CCC1CC2)C(CO)(c1ccccc1)c1ccccc1", "note": "(configuration not stated)", "inhibition": "inactive: 0.21%"}
